# Tests used:
# plasma protein = conditions: cited from earlier work
# [1] = Pharmacokinetic drug-drug interaction study in rats after oral administration; assay type: in vivo, SD (Sprague-Dawley) rats; conditions: rat plasma, TEL 4 mg/kg oral, with LEN (1.2 mg/kg)
# Description: SPF (specific pathogen free)-grade male SD (Sprague-Dawley) rats (weight: 230 ± 10 g) were purchased from Beijing Weitong Lihua Experimental Animal Technology Co. Ltd. (Beijing, China). Before starting the experiment, the rats were given sufficient food and water and kept under suitable conditions for one week. Suitable conditions included suitable temperature (23–27 °C), suitable humidity (50 ± 10%), and 12-h light–12-h dark diurnal cycle. All animals were fasted for 12 h before the start of the experiment, but they were allowed to drink water freely. All the animal experimental protocols were conducted in accordance with the UK Animals (Scientific Procedures) Act 1986 and under the guideline approved by the Ethics Committee of Hebei General Hospital (Shijiazhuang, China; No. 2021131).
# Twenty-four healthy rats were randomly and equally divided into four groups (six animals in each group). […] Approximately 0.3 mL of blood was collected from the orbital venous plexus in a heparinized centrifuge tube from each rat at 0.25, 0.5, 1, 2, 3, 4, 6, 8, 10, 12, 24, 48, 72, and 96 h after administration. […]
# The main pharmacokinetic parameters are presented as mean ± standard deviation and statistically analyzed using SPSS 25.0 software package (SPSS Inc., Chicago, IL, USA). […]
smiles,measurement,setting,value
"CCCc1nc2c(C)cc(-c3nc4ccccc4n3C)cc2n1Cc1ccc(-c2ccccc2C(=O)O)cc1 [TEL, Telmisartan]",plasma protein binding ratio,plasma protein,~99%
same,Vz,[1],26.59 ± 19.50 L/kg
